# Antibody variant affinities, Ab-95 light chain, assay 2

All variants were tested on one target, the spike HR2 peptide PDVDLGDISGINAS (SARS-CoV-2).

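The parent was found by panning a naive human phage display library on the peptide. Library AAYL52 holds single substitutions and randomly drawn double and triple substitutions in the CDRs. The assay is AlphaSeq: two haploid yeast populations carry antibody and antigen on their surface. Pairs that bind mate more often; barcode pairs of the diploids are counted by sequencing. Each replicate has its own calibration line, from reference interactions of the BCL2 family. The assay was run in three technical replicates.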

Each scFv is VH, three GGGGS repeats, VL, as in the parent Ab-95, and differs from it in the CDRs of the light chain only.
VH: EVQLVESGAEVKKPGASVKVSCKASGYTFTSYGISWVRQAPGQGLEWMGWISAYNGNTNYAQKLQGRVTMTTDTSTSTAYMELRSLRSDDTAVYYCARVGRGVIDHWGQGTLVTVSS
VL: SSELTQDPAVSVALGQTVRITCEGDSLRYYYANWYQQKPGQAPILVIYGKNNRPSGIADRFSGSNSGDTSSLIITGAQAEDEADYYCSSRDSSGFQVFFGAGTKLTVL

Each variant is given by its three light chain CDRs, as the data file delimits them; those of the parent are EGDSLRYYYAN, GKNNRPS, SSRDSSGFQVF. Kd is apparent (estimated from mating counts) and averaged on the log scale over replicates with a signal. Smaller is tighter. "nd" marks a missing value. The strain was present, yet no cells mated with the target were sequenced in any replicate, which points to weak or no binding.

CDR-L1	CDR-L2	CDR-L3	apparent Kd	replicates with signal
FGASLRYYYAN	GKNNRPS	SSIDSSGFQVF	21 µM	1/3
EGDSLRYYYAN	FKNNRPS	SSRDSSAFQVD	nd	0/3
EGDSCRYYYAN	GKNNRLS	SSRWSSGFQVF	6.3 µM	2/3
EGDSLRYYYAN	GKNNRPS	SSADSSGFVVM	380 nM	3/3
EGDVLRYYYAN	GKNDRPS	SSRDNSGFQVF	1.5 µM	2/3
EFDSLRYYYAN	GKNNYPS	SSRDSSWFQVF	7.4 µM	2/3
EGDSLRYQYAN	GKNNQPS	MSRDSSGFQVF	4.1 nM	3/3
EGDSLRYDYAA	GKNNRPS	SSRDSSPFQVF	12 µM	1/3
EGDMQRYYYAN	GKNNRPS	SHRDSSGFQVF	330 nM	1/3
EGDSLRYYIAN	GRNNRPS	SSRDMSGFQVF	720 nM	3/3
EGDSLRYYCAN	GKNNRPS	SSRDSSYRQVF	28 nM	3/3
EADSLRYYYAN	GKPNRPS	SSRDSSGFQVF	46 µM	3/3
EGDSWRYYYAN	GKPNRNS	SSRDSSGFQVF	nd	0/3
EGDSLRYYLAN	GKNNRPS	WSDDSSGFQVF	4.3 µM	1/3
IGDSLRYYYAN	GINNRPS	ASRDSSGFQVF	1.2 µM	3/3
EGDSLRYCYAN	GKNNRPS	CRRDSSGFQVF	91 nM	3/3
EGDSLRYYYAN	GKNNRPS	SSRDTARFQVF	620 nM	1/3
EGDSLGTYYAN	GKNNRPS	SSRDSSGFQLF	680 nM	3/3
EGPSLRPYYAN	GKNNRGS	SSRDSSGFQVF	840 nM	3/3
CGDSLFYYYAN	GKNNRPS	SSRDSSGFQVL	460 µM	1/3
EGDSLRMLYAN	GKNNRPS	SSRDSSGFQVT	8.3 µM	2/3
ACDSLRYYYAN	GKNNRPS	SSRDSSGFQLF	4.0 µM	3/3
EGDSLRSYYAN	GKNNRPS	SSRDHSGFNVF	45 nM	3/3
PGDSLRVYYAN	GKNNRPS	YSRDSSGFQVF	26 µM	3/3
EGDSLEYQYAN	GKNNRPS	SSRDSSGFLVF	12 nM	3/3
EGDFLRYYYAN	GKELRPS	SSRDSSGFQVF	nd	0/3
EGQSLRYYYAN	GKNNQPS	SSRDSSGQQVF	nd	0/3
EGDSLRYYYAN	GKNNPPS	SSRDSMGFQVF	53 µM	2/3
RGDSLRYYYAN	GKNNRPQ	SIRDSSGFQVF	610 nM	3/3
EGDSLRYYDAN	GKNNRFS	SSRVSSGFQVF	68 nM	3/3
EGDSLRYYWAN	PKNNRPS	SSRKSSGFQVF	11 µM	1/3
VGDSLRYYYAN	GKNNSPD	SSRDSSGFQVF	120 nM	3/3
EGDSLKYYYAN	GKNNRPS	SDRMSSGFQVF	210 nM	3/3
EGDSLRYYYAN	GKHMRPS	SSRDSSHFQVF	1.8 µM	3/3
EGDSLRYYAAN	GKNNRPS	SSRDSAGFQVF	38 nM	3/3
EGYSLRYYYAN	GKNWYPS	SSRDSSGFQVF	nd	0/3
EGDSLRYYYAN	NKNKRPS	NSRDSSGFQVF	810 nM	3/3
EGDSLSYYYAN	GKNNRPS	SSRDMSGFQVI	420 nM	3/3
EGDSLRYYYAN	GKNNRPF	ISRDPSGFQVF	940 nM	3/3
EGDSNRYYYAN	GKNNRPS	TSRDSSGFQVC	130 nM	3/3
EGDQLRYYYAN	GKNNRVS	WSRDSSGFQVF	nd	0/3
EGDSLRYYYAN	GKNNRQS	SPRDSNGFQVF	nd	0/3
EGDSLRYYYAN	DYTNRPS	SSRDSSGFQVF	2.6 µM	3/3
EGDSLRYYYEN	GKNNRPS	SLRDSSGFQLF	23 µM	2/3
EGDSLRIYYAN	GKNNRPS	SSRDSSPFQRF	11 µM	1/3
EGDCLRYYYAN	GKNNRPS	SSRDSSGFQFH	93 nM	3/3
EGDSLLYYYAN	GKNVRPS	SSRDSSGFQIF	950 nM	3/3
EGDSLRVFYAN	GLNNRPS	SSRDSSGFQVF	13 µM	3/3
EGDSCRYYPAN	GKNNCPS	SSRDSSGFQVF	10 µM	3/3
ELDSLYYYYAN	GKDNRPS	SSRDSSGFQVF	12 µM	2/3
EVDSLLYYYAN	GKNHRPS	SSRDSSGFQVF	360 µM	1/3
EGDSLICYYAN	MKNNRPS	SSRDSSGFQVF	6.5 µM	2/3
EGDSLRYYYAD	GKNNRPM	SRRDSSGFQVF	12 µM	1/3
RGDSLRNYYAN	GKNNRVS	SSRDSSGFQVF	83 nM	3/3
EGDSLRYYYAN	GKNNRPS	ISRDSSGFQAF	nd	0/3
EGDSLRYYYAN	GKNNTPS	SSRDSVGNQVF	8.9 µM	3/3
EGDSLRYYYKN	GKNNRHS	SSRDSSWFQVF	78 µM	2/3
EGDSLRYYYAN	GKNNRPS	SSRDRSGFFVF	180 nM	3/3
EGDSLRLQYAN	GKNNRPS	SSRNSSGFQVF	7.0 nM	3/3
SGDSLRYYYAN	GKNNRPS	YSRDSSGFQIF	1.2 µM	3/3
EGMSLRYYYPN	GKNNRPS	SSRDDSGFQVF	65 nM	3/3
EIDSLRYYYAN	GKNNRPS	SSRDRSGFQRF	4.7 µM	2/3
EGDSLRYYYAN	LKNNRPS	SSRDYDGFQVF	nd	0/3
EGDSLRYYYAN	GKNNYPS	QSRRSSGFQVF	nd	0/3
ELDSLRYIYAN	GKNNRPS	SYRDSSGFQVF	2.8 µM	2/3
EGDSLRDYYAN	GKNNRPS	SSDDSSGFQVY	29 µM	2/3
ESDSLRYYIAM	GKNNRPS	SSRDSSGFQVF	nd	0/3
EGDSLRYYYCN	GKNNRPS	SSRDSSGEQVF	560 nM	3/3
EGDSLRYYYAN	GTNNRPS	SYRDSSGFDVF	960 nM	3/3
EGDSLPYYYAN	GKNNRPS	SGRDSSVFQVF	nd	0/3
EGDLLRYYYAN	RKNNRPS	SSRDSSGFQVF	nd	0/3
EGNSLRYYYTN	GKNNRPM	SSRDSSGFQVF	500 nM	3/3
EGDNLRYYYAN	GKSNRPS	SSRDYSGFQVF	2.1 µM	3/3

The first 6 entries again:

CDR-L1	CDR-L2	CDR-L3	apparent Kd	replicates with signal
FGASLRYYYAN	GKNNRPS	SSIDSSGFQVF	21 µM	1/3
EGDSLRYYYAN	FKNNRPS	SSRDSSAFQVD	nd	0/3
EGDSCRYYYAN	GKNNRLS	SSRWSSGFQVF	6.3 µM	2/3
EGDSLRYYYAN	GKNNRPS	SSADSSGFVVM	380 nM	3/3
EGDVLRYYYAN	GKNDRPS	SSRDNSGFQVF	1.5 µM	2/3
EFDSLRYYYAN	GKNNYPS	SSRDSSWFQVF	7.4 µM	2/3

In this assay the parent's reference entry averaged 200 nM; its copy inside this library read 180 nM. Background: pairings of library AAYL52 with three empty control strains gave a value in 28% of cases (median 8.2 µM, 5th percentile 800 nM). Values in that range, when seen in few replicates, are hard to tell from nonspecific mating.

The measurements come from Engelhart et al. 2022 (doi:10.1038/s41597-022-01779-4) through the FLAb antibody collection.